Experimental data taken from patent US7320803B2, “Crystalline choline ascorbate” (BASF Aktiengesellschaft, priority 2001, dated 2008).

Conditions: crystals, in contrast to the choline ascorbate occurring as oil

## choline ascorbate [choline ascorbate crystals]
  hygroscopicity: only slightly hygroscopic
